Results published in patent US9238656B2, “Imidazo[4,5-b]pyridine derivatives as ALK and JAK modulators for the treatment of proliferative disorders” (priority 2012, dated 2016).

The chains behind the UniProt entries cited, without tags or fusion partners. Where a name states a change or a piece, a line headed by the entry shows the natural chain unless it says otherwise.
UniProt O60674: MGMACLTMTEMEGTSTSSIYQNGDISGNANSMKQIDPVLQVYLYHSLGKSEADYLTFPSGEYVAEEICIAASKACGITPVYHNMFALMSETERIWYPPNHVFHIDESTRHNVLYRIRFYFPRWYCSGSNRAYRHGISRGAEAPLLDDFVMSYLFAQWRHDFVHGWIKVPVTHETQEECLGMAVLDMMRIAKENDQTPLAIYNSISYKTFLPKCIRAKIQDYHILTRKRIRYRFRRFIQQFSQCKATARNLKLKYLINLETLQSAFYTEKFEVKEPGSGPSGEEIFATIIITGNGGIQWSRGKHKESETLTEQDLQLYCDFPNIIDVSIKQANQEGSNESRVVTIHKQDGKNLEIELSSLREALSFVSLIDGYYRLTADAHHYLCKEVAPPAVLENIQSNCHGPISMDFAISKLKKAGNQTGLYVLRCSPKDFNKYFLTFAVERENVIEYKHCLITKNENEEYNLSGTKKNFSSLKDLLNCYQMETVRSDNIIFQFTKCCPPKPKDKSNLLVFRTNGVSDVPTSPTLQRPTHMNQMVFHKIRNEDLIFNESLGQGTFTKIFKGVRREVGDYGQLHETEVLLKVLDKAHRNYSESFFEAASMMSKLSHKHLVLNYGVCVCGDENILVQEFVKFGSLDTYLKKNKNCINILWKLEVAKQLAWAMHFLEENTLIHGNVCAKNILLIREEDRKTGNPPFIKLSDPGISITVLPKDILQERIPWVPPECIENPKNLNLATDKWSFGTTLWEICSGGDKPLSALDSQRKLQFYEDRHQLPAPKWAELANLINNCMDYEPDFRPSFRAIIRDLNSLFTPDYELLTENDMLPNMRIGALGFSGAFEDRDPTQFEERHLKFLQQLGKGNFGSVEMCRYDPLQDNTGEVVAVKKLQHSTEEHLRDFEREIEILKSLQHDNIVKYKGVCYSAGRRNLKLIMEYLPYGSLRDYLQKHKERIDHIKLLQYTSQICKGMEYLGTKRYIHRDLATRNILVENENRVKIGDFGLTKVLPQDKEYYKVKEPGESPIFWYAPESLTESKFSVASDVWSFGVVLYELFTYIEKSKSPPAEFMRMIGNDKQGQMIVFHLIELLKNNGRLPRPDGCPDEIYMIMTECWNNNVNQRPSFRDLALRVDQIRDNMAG

Biological target: baculovirus-expressed JAK2 kinase (Homo sapiens, UniProt O60674)
Experiment: biochemical
Details: JAK2 Potency
Method: Compounds were tested for their ability to inhibit the kinase activity of baculovirus-expressed JAK2 kinase using the time-resolved fluorescence (TRF) detection system. […] The plates were coated with 100 μL/well of 10 μg/mL Neutravidin (Pierce #31000, Rockford, Ill.) in TBS at 37° C. for 2 h, followed by 100 μL/well of 1 μg/mL 15-mer peptide substrate (biotinyl-amino-hexanoyl-[…]-amide, Infinity Biotech Research and Resource, Aston, Pa.) at 37° C. for 1 h. […] Enzyme (15 ng/mL JAK2) was added and the reaction was allowed to proceed at room temperature for 20 min. […] Inhibition data were analyzed using ActivityBase (IDBS, Guilford, UK). IC50 values were calculated by plotting percent inhibition versus log10 of the concentration of compound and fitting to the nonlinear regression sigmoidal dose-response (variable slope) equation in XLFit (IDBS, Guilford, UK).

## COc1cc(CN2CCCC2)ccc1-c1nc2c(N[C@H]3[C@@H](C(N)=O)[C@@H]4C=C[C@H]3C4)c(Cl)cnc2[nH]1 [Compound XLI]
  IC50: < 100 nM
